The values that follow come from patent US20250243203A1, “NICOTINAMIDE- AND BENZAMIDE-BASED COMPOUNDS, CONJUGATES, AND COMPOSITIONS AS INHIBITORS OF TRANSLATIONAL- AND TRANSCRIPTIONAL-RELATED KINASES” (PURDUE RESEARCH FOUNDATION, priority 2022, published 2025).

Chains of the proteins cited; added tags and fusions are not shown. Residues count along the entry.
UniProt Q9HBH9, whole entry: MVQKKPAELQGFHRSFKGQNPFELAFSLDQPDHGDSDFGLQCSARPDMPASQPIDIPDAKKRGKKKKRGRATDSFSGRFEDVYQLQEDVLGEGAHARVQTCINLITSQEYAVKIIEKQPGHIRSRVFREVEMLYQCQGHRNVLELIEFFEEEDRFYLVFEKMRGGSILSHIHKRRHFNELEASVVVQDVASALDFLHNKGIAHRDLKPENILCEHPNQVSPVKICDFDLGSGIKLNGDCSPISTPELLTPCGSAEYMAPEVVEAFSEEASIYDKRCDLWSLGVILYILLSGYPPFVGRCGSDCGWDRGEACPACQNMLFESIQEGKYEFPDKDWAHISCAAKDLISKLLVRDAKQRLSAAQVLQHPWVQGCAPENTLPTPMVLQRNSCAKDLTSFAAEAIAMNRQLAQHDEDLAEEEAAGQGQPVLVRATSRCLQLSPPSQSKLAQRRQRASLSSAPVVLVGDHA
UniProt Q12866, 21-999 limits assumed: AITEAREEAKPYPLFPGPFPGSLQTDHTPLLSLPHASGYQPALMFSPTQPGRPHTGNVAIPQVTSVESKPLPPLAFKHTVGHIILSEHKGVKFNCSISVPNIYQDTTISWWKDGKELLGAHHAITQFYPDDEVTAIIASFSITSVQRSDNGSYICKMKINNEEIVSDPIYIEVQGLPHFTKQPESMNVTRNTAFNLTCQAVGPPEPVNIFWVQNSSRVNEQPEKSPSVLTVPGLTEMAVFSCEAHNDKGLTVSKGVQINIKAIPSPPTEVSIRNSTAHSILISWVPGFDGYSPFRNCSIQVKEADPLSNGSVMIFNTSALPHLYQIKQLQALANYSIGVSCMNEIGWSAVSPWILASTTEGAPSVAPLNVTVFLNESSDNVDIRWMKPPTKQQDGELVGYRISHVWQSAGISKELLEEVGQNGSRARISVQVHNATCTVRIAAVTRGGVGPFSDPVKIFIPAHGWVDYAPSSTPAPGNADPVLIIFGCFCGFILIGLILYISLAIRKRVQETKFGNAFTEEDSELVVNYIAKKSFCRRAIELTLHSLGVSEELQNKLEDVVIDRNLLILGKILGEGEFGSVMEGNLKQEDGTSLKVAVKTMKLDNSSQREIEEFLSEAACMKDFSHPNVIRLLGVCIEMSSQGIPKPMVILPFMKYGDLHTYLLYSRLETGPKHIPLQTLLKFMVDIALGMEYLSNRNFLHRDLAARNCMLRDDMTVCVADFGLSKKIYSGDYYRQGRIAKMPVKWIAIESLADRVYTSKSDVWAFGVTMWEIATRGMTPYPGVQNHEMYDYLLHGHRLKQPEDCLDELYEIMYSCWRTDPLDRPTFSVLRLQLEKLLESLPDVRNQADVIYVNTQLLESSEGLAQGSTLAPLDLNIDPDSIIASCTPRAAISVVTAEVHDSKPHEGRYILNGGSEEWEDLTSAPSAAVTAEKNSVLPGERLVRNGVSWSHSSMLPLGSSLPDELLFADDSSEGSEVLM
UniProt P30530, 26-894 limits assumed: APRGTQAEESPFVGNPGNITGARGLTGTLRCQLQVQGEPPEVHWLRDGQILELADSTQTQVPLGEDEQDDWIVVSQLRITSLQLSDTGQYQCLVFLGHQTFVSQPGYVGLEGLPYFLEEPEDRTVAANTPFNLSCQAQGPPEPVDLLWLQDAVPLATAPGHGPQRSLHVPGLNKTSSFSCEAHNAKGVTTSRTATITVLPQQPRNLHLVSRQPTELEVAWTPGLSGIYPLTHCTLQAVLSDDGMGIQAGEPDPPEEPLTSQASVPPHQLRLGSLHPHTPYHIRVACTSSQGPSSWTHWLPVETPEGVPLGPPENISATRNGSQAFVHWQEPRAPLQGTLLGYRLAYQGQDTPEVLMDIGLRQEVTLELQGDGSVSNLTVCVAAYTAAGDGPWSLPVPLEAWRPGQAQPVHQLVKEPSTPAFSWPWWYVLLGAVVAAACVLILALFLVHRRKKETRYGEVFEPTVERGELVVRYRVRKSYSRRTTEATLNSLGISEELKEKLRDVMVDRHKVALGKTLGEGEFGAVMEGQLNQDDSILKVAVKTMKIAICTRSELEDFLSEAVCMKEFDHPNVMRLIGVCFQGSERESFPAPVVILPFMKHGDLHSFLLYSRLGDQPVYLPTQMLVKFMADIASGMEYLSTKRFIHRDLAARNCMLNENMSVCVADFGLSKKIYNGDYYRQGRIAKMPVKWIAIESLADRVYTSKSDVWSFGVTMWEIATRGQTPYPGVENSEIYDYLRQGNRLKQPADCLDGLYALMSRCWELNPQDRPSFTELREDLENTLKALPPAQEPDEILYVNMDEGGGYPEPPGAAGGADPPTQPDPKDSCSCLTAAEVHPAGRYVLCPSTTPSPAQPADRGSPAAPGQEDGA

For orientation: IC50 means the concentration needed to halve the response being measured.

The target of experiment [1] is T1, MNK2 (Homo sapiens, UniProt Q9HBH9). As to conditions: read-out: MNK2 IC50; [ATP]=100 μM; cited from earlier work.
Experiment [2] concerns the target MER Proto-Oncogene tyrosine kinase (MERTK) (Homo sapiens, UniProt Q12866). As to the kind of experiment: KINOMEscan competition binding assay (Eurofins DiscoverX), MERTK.
Experiment [3] addresses T1, MNK2. Briefly: MNK2 inhibition, in vitro studies at Reaction Biology Corporation. Conditions: 50 nM compound, 10 uM ATP.
For experiment [4], the target named is AXL receptor tyrosine kinase (AXL) (Homo sapiens, UniProt P30530). Briefly: KINOMEscan competition binding assay (Eurofins DiscoverX), AXL.

On to `CN1CCN(Cc2ccc(NC(=O)c3cncc(C#Cc4cnc5cccnn45)c3)cc2C(F)(F)F)CC1`, for which the IC50 on MNK2 [1] was 9 nM. In addition, in experiment [2], the “MERTK targeting” value is “not targeted”. The “inhibition of MNK2” value on MNK2 [3] amounted to 89%. In addition, in experiment [4], the “AXL targeting” value is “not targeted”.
